Reference: patent publication US12583836B2 (Anaxis Pharma Pty Ltd, priority 2020, dated 2026)

Target: T1, MLKL (full length) (Homo sapiens, UniProt Q8NB16)
T1 construct: purchased DiscoverX (KINOMEscan service); host or cells: E. coli BL21-derived (T7 phage) or HEK293
T1 sequence (Q8NB16 1-471): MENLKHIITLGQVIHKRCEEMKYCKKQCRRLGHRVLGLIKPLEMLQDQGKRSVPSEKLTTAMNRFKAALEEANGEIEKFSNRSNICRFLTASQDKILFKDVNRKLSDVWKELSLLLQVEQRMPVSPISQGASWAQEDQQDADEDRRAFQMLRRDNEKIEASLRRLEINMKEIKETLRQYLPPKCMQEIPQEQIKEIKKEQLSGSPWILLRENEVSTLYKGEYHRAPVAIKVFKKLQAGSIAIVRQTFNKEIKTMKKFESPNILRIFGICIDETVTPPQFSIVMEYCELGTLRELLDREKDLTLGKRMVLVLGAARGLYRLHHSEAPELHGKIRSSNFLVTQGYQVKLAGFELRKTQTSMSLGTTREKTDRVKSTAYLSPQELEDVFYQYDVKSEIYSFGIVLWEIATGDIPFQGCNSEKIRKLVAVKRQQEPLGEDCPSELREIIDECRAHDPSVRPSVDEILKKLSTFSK
Test: KINOMEscan binding assay, MLKL
Details: equilibrium dissociation constant, class symbols

Kd [nM]	SMILES
< 10	NC(=O)c1c(-c2ccc(NS(=O)(=O)CC(F)(F)F)c(OCc3ccc(F)cc3)c2)n[nH]c1Nc1cccc(C(F)F)n1 [Compound 173, 5-((6-(difluoromethyl)pyridine-2-yl)amino)-3-(3-((4-fluorobenzyl)oxy)-4-((2,2,2-trifluoroethyl)sulfonamido)phenyl)-1H-pyrazole-4-carboxamide]
< 10	NC(=O)c1c(-c2ccc(NS(=O)(=O)C(F)F)c(Oc3ccc(F)cc3)c2)n[nH]c1Nc1cnccn1 [Compound 177, 3-(4-((difluoromethyl)sulfonamido)-3-(4-fluorophenoxy)phenyl)-5-(pyrazin-2-ylamino)-1H-pyrazole-4-carboxamide]
< 10	CCS(=O)(=O)Nc1ccc(-c2n[nH]c(Nc3cccc(C(F)F)n3)c2C(N)=O)cc1OCc1ccc(F)cc1 [Compound 179, 5-((6-(difluoromethyl)pyridine-2-yl)amino)-3-(4-(ethylsulfonamido)-3-((4-fluorobenzyl)oxy)phenyl)-1H-pyrazole-4-carboxamide]
10 to 1000	NC(=O)c1c(-c2ccc(NS(=O)(=O)CCC(F)(F)F)c(OCc3ccc(F)cc3)c2)n[nH]c1Nc1cccc(C(F)(F)F)n1 [Compound 182, 3-(3-((4-fluorobenzyl)oxy)-4-((3,3,3-trifluoropropyl)sulfonamido)phenyl)-5-((6-(trifluoromethyl)pyridine-2-yl)amino)-1H-pyrazole-4-carboxamide]
< 10	NC(=O)c1c(-c2ccc(NS(=O)(=O)CCC(F)(F)F)c(OCc3ccc(F)cc3)c2)n[nH]c1Nc1cnccn1 [Compound 184, 3-(3-((4-fluorobenzyl)oxy)-4-((3,3,3-trifluoropropyl)sulfonamido)phenyl)-5-(pyrazin-2-ylamino)-1H-pyrazole-4-carboxamide]
< 10	NC(=O)c1c(-c2ccc(NS(=O)(=O)CC(F)(F)F)c(OCc3ccc(F)cc3)c2)n[nH]c1Nc1ccnc(C(F)(F)F)n1 [Compound 186, 3-(3-((4-fluorobenzyl)oxy)-4-((2,2,2-trifluoroethyl)sulfonamido)phenyl)-5-((2-(trifluoromethyl)pyrimidin-4-yl)amino)-1H-pyrazole-4-carboxamide]
< 10	NC(=O)c1c(-c2ccc(NS(=O)(=O)CCC(F)(F)F)cc2)n[nH]c1Nc1cccc(C(F)(F)F)n1 [Compound 189, 5-((6-(trifluoromethyl)pyridine-2-yl)amino)-3-(4-((3,3,3-trifluoropropyl)sulfonamido)phenyl)-1H-pyrazole-4-carboxamide]
< 10	CCS(=O)(=O)Nc1ccc(-c2n[nH]c(Nc3cnccn3)c2C(N)=O)cc1O[C@H](C)c1ccc(F)cc1 [Compound 193, (R)-3-(4-(ethylsulfonamido)-3-(1-(4-fluorophenyl)ethoxy)phenyl)-5-(pyrazin-2-ylamino)-1H-pyrazole-4-carboxamide]
< 10	CCS(=O)(=O)Nc1ccc(-c2n[nH]c(Nc3ccc(OC)nc3)c2C(N)=O)cc1OCc1ccc(F)cc1 [Compound 197, 3-(4-(ethylsulfonamido)-3-((4-fluorobenzyl)oxy)phenyl)-5-((6-methoxypyridin-3-yl)amino)-1H-pyrazole-4-carboxamide]
< 10	CCS(=O)(=O)Nc1ccc(-c2n[nH]c(Nc3cnccn3)c2C(N)=O)cc1O[C@@H](C)c1ccc(F)cc1 [Compound 199, (S)-3-(4-(ethylsulfonamido)-3-(1-(4-fluorophenyl)ethoxy)phenyl)-5-(pyrazin-2-ylamino)-1H-pyrazole-4-carboxamide]
< 10	CCS(=O)(=O)Nc1ccc(-c2n[nH]c(Nc3ccccn3)c2C(N)=O)c(OCc2ccc(F)cc2)c1 [Compound 201]
10 to 1000	CCS(=O)(=O)Nc1ccc(-c2n[nH]c(Nc3ccc(C(F)(F)F)cn3)c2C(N)=O)cc1OCc1ccc(F)cc1 [Compound 207]
10 to 1000	CCS(=O)(=O)Nc1ccc(-c2n[nH]c(Nc3cnccn3)c2C(N)=O)c(OCc2cccc(F)c2)c1 [Compound 208, 3-(4-(ethylsulfonamido)-2-((3-fluorobenzyl)oxy)phenyl)-5-(pyrazin-2-ylamino)-1H-pyrazole-4-carboxamide]
